Consider 1 molecule from paper PMC3793267 (Biomarkers, 2008).

By UniProt entry, the sequences of proteins in these tests, tags left out. Residues count along the entry.
UniProt P22303, 32-614: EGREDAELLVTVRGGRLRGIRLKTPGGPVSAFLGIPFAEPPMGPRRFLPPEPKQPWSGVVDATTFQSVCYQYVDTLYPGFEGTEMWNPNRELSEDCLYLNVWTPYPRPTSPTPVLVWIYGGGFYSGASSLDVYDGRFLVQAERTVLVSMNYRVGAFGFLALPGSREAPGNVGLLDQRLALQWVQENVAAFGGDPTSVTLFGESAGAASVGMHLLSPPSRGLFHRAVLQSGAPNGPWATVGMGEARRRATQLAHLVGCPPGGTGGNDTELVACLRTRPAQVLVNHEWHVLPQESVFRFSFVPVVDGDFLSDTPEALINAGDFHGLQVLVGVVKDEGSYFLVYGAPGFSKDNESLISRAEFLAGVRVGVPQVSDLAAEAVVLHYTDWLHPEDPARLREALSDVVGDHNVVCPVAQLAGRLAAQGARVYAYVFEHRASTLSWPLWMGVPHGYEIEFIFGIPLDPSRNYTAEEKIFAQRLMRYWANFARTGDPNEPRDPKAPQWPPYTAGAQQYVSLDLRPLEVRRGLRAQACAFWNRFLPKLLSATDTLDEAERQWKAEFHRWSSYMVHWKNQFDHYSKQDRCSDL

The assay has as its target recombinant human AChE (Homo sapiens, UniProt P22303). Briefly: Inhibition of recombinant AChE by pesticide-oxons. The assay is classed as biochemical.

Broadly, the IC50 is the concentration that gives 50% inhibition. As for `CCOP(=O)(OCC)OC(=CCl)c1ccc(Cl)cc1Cl` [Chlorfenvinphos (oxon), 2-chloro-1-(2,4-dichlorophenyl)vinyl diethyl phosphate], the IC50 was around 1.5 µM.
